This is an account of results in patent US12583836B2 (Anaxis Pharma Pty Ltd, priority 2020, dated 2026).

Amino acid sequences for entries named in this document (tags omitted). A change or cut given only in a name is not applied to a line headed by its entry.
UniProt Q9Y572: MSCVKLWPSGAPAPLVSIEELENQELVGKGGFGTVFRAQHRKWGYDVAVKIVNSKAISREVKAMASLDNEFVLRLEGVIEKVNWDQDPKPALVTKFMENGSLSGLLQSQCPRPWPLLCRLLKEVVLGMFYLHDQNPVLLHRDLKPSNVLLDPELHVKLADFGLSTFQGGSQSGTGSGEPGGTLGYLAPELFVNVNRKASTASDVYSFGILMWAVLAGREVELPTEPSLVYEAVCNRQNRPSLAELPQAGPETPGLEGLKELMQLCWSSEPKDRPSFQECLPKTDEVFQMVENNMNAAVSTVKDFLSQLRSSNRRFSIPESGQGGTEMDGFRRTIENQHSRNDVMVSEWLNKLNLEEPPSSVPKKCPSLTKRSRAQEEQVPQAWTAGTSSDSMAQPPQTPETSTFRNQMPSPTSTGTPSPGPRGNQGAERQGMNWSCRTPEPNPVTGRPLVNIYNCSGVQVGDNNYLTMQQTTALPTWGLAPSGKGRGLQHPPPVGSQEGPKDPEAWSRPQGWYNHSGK

Conditions in all cases: equilibrium dissociation constant, class symbols
In test [1] the target is T1, RIP1 (Homo sapiens, UniProt Q13546).
T1 construct: purchased DiscoverX (KINOMEscan service); host or cells: E. coli BL21-derived (T7 phage) or HEK293
T1 sequence (Q13546 1-671): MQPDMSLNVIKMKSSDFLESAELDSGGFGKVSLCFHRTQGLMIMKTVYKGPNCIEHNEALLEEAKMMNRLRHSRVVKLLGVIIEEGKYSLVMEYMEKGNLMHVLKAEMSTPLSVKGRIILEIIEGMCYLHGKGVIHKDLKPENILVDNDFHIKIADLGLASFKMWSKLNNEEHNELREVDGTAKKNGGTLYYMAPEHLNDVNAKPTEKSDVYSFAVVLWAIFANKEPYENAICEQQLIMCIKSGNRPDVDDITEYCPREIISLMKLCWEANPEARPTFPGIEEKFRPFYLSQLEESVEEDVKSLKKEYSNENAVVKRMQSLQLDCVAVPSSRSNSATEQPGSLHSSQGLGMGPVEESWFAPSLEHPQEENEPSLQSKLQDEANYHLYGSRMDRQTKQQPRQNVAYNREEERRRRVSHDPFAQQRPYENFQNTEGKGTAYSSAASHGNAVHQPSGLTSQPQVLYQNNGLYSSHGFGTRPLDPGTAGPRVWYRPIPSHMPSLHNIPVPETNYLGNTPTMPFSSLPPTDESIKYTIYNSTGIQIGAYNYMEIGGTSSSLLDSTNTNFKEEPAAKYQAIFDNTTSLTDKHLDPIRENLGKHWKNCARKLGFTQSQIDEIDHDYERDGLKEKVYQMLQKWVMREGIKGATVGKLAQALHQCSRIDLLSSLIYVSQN
As to the kind of experiment: KINOMEscan binding assay, RIP1.

Test [2] deals with T2, RIP3 (Homo sapiens, UniProt Q9Y572).
T2 construct: purchased DiscoverX (KINOMEscan service); host or cells: E. coli BL21-derived (T7 phage) or HEK293
As to the kind of experiment: KINOMEscan binding assay, RIP3.

Test [3] has as its target T3, MLKL (full length) (Homo sapiens, UniProt Q8NB16).
T3 construct: purchased DiscoverX (KINOMEscan service); host or cells: E. coli BL21-derived (T7 phage) or HEK293
T3 sequence (Q8NB16 1-471): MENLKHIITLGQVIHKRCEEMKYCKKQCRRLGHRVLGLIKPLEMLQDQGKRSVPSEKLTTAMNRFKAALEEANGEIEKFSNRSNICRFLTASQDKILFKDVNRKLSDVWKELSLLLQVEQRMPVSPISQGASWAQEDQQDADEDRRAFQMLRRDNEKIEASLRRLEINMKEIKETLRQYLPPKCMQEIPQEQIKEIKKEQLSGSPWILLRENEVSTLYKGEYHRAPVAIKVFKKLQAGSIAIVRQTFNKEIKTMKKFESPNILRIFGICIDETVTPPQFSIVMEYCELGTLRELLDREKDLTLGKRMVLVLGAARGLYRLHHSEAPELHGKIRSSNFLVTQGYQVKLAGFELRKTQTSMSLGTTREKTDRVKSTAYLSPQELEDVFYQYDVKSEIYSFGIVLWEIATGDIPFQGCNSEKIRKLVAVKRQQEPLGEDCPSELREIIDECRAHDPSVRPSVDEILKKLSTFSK
Description: KINOMEscan binding assay, MLKL.

Structures are written as SMILES.

Consider `NC(=O)c1c(-c2ccc(NS(=O)(=O)CC(F)(F)F)c(OCc3ccc(F)c(Cl)c3)c2)n[nH]c1Nc1cnccn1` [Compound 225, 3-{3-[(3-chloro-4-fluorophenyl)methoxy]-4-(2,2,2-trifluoroethane-sulfonamido)phenyl}-5-[(pyrazin-2-yl)amino]-1H-pyrazole-4-carboxamide], for which the results for the Kd in test [1], in test [2] and in test [3] were over 30 µM, over 30 µM and under 0.01 µM, respectively.
With `NC(=O)c1c(-c2ccc(NS(=O)(=O)CC(F)(F)F)c(OCc3ccc(F)cn3)c2)n[nH]c1Nc1cnccn1` [Compound 231, 3-(3-((5-fluoropyridin-2-yl)methoxy)-4-((2,2,2-trifluoroethyl)sulfonamido)phenyl)-5-(pyrazin-2-ylamino)-1H-pyrazole-4-carboxamide], the Kd in test [1] is over 30 µM; in test [2] it was over 30 µM; in test [3] it was under 0.01 µM.
As for `NC(=O)c1c(-c2ccc(NS(=O)(=O)CC(F)(F)F)c(OCc3ccc(F)cc3)c2)n[nH]c1Nc1cnc(C(F)(F)F)cn1` [Compound 238, 3-{3-[(4-fluorophenyl)methoxy]-4-(2,2,2-trifluoroethanesulfonamido)phenyl}-5-{[5-(trifluoromethyl)pyrazin-2-yl]amino}-1H-pyrazole-4-carboxamide], the dissociation constant (Kd) was over 30 µM in test [1], over 30 µM in test [2] and under 0.01 µM in test [3].
As to `CCS(=O)(=O)Nc1ccc(-c2n[nH]c(Nc3ccccn3)c2C(N)=O)cc1OCc1ccc(F)cn1` [Compound 241, 3-{4-ethanesulfonamido-3-[(5-fluoropyridin-2-yl)methoxy]phenyl}-5-[(pyridin-2-yl)amino]-1H-pyrazole-4-carboxamide], the figures for the equilibrium dissociation constant (Kd) in test [1], in test [2] and in test [3] were over 30 µM, over 30 µM and under 0.01 µM, respectively.
For `CCS(=O)(=O)Nc1ccc(-c2n[nH]c(Nc3cnccn3)c2C(N)=O)cc1OCc1ccc(Cl)cn1` [Compound 242, 3-{3-[(5-chloropyridin-2-yl)methoxy]-4-ethanesulfonamidophenyl}-5-[(pyrazin-2-yl)amino]-1H-pyrazole-4-carboxamide], the Kd in test [1] is over 30 µM; in test [2], over 30 µM; in test [3], under 0.01 µM.
As for `NC(=O)c1c(-c2ccc(NS(=O)(=O)C(F)F)c(OCc3ccc(F)cc3)c2)n[nH]c1Nc1cnc(C(F)(F)F)cn1` [Compound 246, 3-[4-(difluoromethanesulfonamido)-3-[(4-fluorophenyl)methoxy]phenyl]-5-{[5-(trifluoromethyl)pyrazin-2-yl]amino}-1H-pyrazole-4-carboxamide], the Kd in test [1] is over 30 µM; in test [2], over 30 µM; in test [3], under 0.01 µM.
In the case of `CCS(=O)(=O)Nc1ccc(-c2n[nH]c(Nc3cnccn3)c2C(N)=O)cc1OC1(c2ccc(F)cc2)CC1` [Compound 248, 3-{4-ethanesulfonamido-3-[1-(4-fluorophenyl)cyclopropoxy]phenyl}-5-[(pyrazinyl)amino]-1H-pyrazole-4-carboxamide], the Kd in test [1] is over 30 µM; in test [2] it was over 30 µM; in test [3], under 0.01 µM.
For the molecule `C[C@H](Oc1cc(-c2n[nH]c(Nc3cnccn3)c2C(N)=O)ccc1NS(=O)(=O)C(F)F)c1ccc(Cl)cc1` [Compound 252, 3-{3-[(1S)-1-(4-chlorophenyl)ethoxy]-4-(difluoromethanesulfonamido)phenyl}-5-[(pyrazin-2-yl)amino]-1H-pyrazole-4-carboxamide], the figures for the dissociation constant Kd in test [1], in test [2] and in test [3] were over 30 µM, over 30 µM and under 0.01 µM, respectively.
In the case of `C[C@H](Oc1cc(-c2c(C(N)=O)c(Nc3cnccn3)nn2C)ccc1NS(=O)(=O)C(F)F)c1ccc(F)cc1` [Compound 253, 5-[4-(difluoromethanesulfonamido)-3-[(1S)-1-(4-fluorophenyl)ethoxy]phenyl]-1-methyl-3-[(pyrazin-2-yl)amino]-1H-pyrazole-4-carboxamide], the figures for the equilibrium dissociation constant (Kd) in test [1], in test [2] and in test [3] were over 30 µM, over 30 µM and under 0.01 µM, respectively.
For `C[C@@H](Oc1cc(NS(=O)(=O)CC(F)(F)F)ccc1-c1n[nH]c(Nc2cnccn2)c1C(N)=O)c1ccc(F)cc1` [Compound 254, 3-{2-[(1R)-1-(4-fluorophenyl)ethoxy]-4-(2,2,2-trifluoroethanesulfonamido)phenyl}-5-[(pyrazin-2-yl)amino]-1H-pyrazole-4-carboxamide], the Kd in test [1] is over 30 µM; in test [2], over 30 µM; in test [3], 0.01 to 1 µM.
`C[C@H](Oc1cc(-c2n[nH]c(Nc3cnccn3)c2C(N)=O)ccc1NS(=O)(=O)CC(F)(F)F)c1cccc(Cl)c1` [Compound 256, 3-{3-[(1S)-1-(3-chlorophenyl)ethoxy]-4-(2,2,2-trifluoroethane-sulfonamido)phenyl}-5-[(pyrazin-2-yl)amino]-1H-pyrazole-4-carboxamide]: the values for the Kd in test [1], in test [2] and in test [3] were over 30 µM, over 30 µM and under 0.01 µM, respectively.
Turning to `N#Cc1cccc(Nc2[nH]nc(-c3ccc(NS(=O)(=O)C(F)F)cc3)c2C(N)=O)n1` [Compound 258, 5-[(6-cyanopyridin-2-yl)amino]-3-[4-(difluoromethanesulfonamido)phenyl]-1H-pyrazole-4-carboxamide], the Kd in test [1] was over 30 µM; in test [2] it was over 30 µM; in test [3], under 0.01 µM.
`C[C@H](Oc1cc(-c2n[nH]c(Nc3ccccn3)c2C(N)=O)ccc1NS(=O)(=O)C(F)F)c1ccc(F)cc1` [Compound 260, 3-[4-(difluoromethanesulfonamido)-3-[(1S)-1-(4-fluorophenyl)ethoxy]phenyl]-5-[(pyridin-2-yl)amino]-1H-pyrazole-4-carboxamide]: the results for the Kd in test [1], in test [2] and in test [3] were over 30 µM, over 30 µM and under 0.01 µM, respectively.
On to `C[C@H](Oc1cc(-c2n[nH]c(Nc3cnccn3)c2C(N)=O)ccc1NS(=O)(=O)CC(F)(F)F)c1cccc(F)c1` [Compound 265], for which the Kd was over 30 µM in test [1], over 30 µM in test [2] and under 0.01 µM in test [3].
Take `NC(=O)c1c(-c2ccc(NS(=O)(=O)CC(F)(F)F)cc2)n[nH]c1Nc1ccccn1` [Compound 268, 5-[(pyridin-2-yl)amino]-3-[4-(2,2,2-trifluoroethanesulfonamido)phenyl]-1H-pyrazole-4-carboxamide]: the Kd in test [1] was over 30 µM; in test [2], over 30 µM; in test [3], under 0.01 µM.
For the molecule `Cc1nn(C)cc1Nc1[nH]nc(-c2ccc(NS(=O)(=O)C(F)F)c(O[C@@H](C)c3ccc(F)cc3)c2)c1C(N)=O` [Compound 270, (S)-3-(4-((difluoromethyl)sulfonamido)-3-(1-(4-fluorophenyl)ethoxy)phenyl)-5-((1,3-dimethyl-1H-pyrazol-4-yl)amino)-1H-pyrazole-4-carboxamide], the Kd was over 30 µM in test [1], over 30 µM in test [2] and under 0.01 µM in test [3].
Consider `C[C@@H](Oc1cc(-c2n[nH]c(Nc3cnccn3)c2C(N)=O)ccc1NS(=O)(=O)C(F)F)c1ccc(F)cc1` [Compound 271, (R)-3-(4-((difluoromethyl)sulfonamido)-3-(1-(4-fluorophenyl)ethoxy)phenyl)-5-(pyrazin-2-ylamino)-1H-pyrazole-4-carboxamide], for which the Kd in test [1] was over 30 µM; in test [2], over 30 µM; in test [3], under 0.01 µM.
Regarding `NC(=O)c1c(-c2ccc(NS(=O)(=O)C(F)F)c(OCc3nccs3)c2)n[nH]c1Nc1cnccn1` [Compound 275, 3-(4-((difluoromethyl)sulfonamido)-3-(thiazol-2-ylmethoxy)phenyl)-5-(pyrazin-2-ylamino)-1H-pyrazole-4-carboxamide], the Kd in test [1] is over 30 µM; in test [2], over 30 µM; in test [3] it was under 0.01 µM.
For `C[C@H](Oc1cc(-c2n[nH]c(Nc3cc(C4(C)CC4)on3)c2C(N)=O)ccc1NS(=O)(=O)C(F)F)c1ccc(F)cc1` [Compound 276, (S)-3-(4-((difluoromethyl)sulfonamido)-3-(1-(4-fluorophenyl)ethoxy)phenyl)-5-((5-(1-methylcyclopropyl)isoxazol-3-yl)amino)-1H-pyrazole-4-carboxamide], the Kd was over 30 µM in test [1], over 30 µM in test [2] and under 0.01 µM in test [3].
